Results on one compound are retold here after patent US20090155186A1, “Compositions and methods for treating inflammatory conditions” (SIGNUM BIOSCENCES, INC., priority 2005, published 2009).

Each structure is given as a SMILES string.

Data set [1] relates to TPA-induced MPO activity. The data set is described as follows: TPA-induced neutrophil infiltration, MPO assay of mouse ears. To be noted: AFC without TPA.
Data set [2] has as its system TPA-induced MPO activity. The data set is described as follows: Systemic effect: TPA-induced MPO activity in the contralateral vehicle-treated ear. To be noted: topical, increasing concentration, TPA on both ears.
In a further data set the test system is AA-induced MPO. The data set is described as follows: Arachidonic acid-induced inflammation in mouse ear, MPO assay. The format is in vivo. The conditions noted are these: AA 4 mg/40 μl acetone, MPO at 5 hours. The procedure: Arachadonic acid (“AA”), another standard agent that is used routinely as a contact irritant in the mouse ear model to assay the effectiveness of both steroidal and nonsteroidal anti-inflammatory agents, is the metabolic precursor for a number of lipoxygenase and cyclooxygenase products. Its mechanism of action and, thus, the signaling pathways it activates, differ from those activated by topically applied TPA. AA produces a more rapid edema than TPA that peaks at 1 hour after application. There is minimal histologically observable neutrophil infiltration in response to AA, but an increase in MPO can be detected. Experience has shown that effectiveness against cyclooxygenase activated inflammation in this model is less predictive of effectiveness against human inflammatory diseases than effectiveness against TPA activated inflammation. The effect of the inventive compositions on arachidonic acid (AA) induced inflammation was assayed using the same protocols as above, but with the following modifications. AA was applied to both ears at 4 mg/40 μl acetone. The ears were harvested at 1 hour to measure edema, the maximum response time, and at 5 hours for inflammatory neutrophil infiltration as measured by an MPO assay.

In the case of `CC(=O)N[C@@H](CSCC=C(C)CCC=C(C)CCC=C(C)C)C(=O)O` (stereo in doubt) [AFC, N-acetyl-5-trans, trans-farnesyl-L-cysteine], the “inflammation activity of AFC itself in the Neutrophil-Infiltration Assay” value in the data set with TPA-induced MPO activity [1] is listed as “no inflammation activity of its own”. Further, the “MPO activity in the contralateral vehicle-treated ear (systemic effect)” value with TPA-induced MPO activity [2] is reported as “no effect”. In addition, in the data set with AA-induced MPO, the “ED50 against AA-induced MPO relative to TPA-induced MPO” value is given as 10 fold and the “activity against AA-induced granulocyte infiltration relative to TPA” value is recorded as 50%.
